Data from patent publication EP4821493A1, “PHARMACEUTICAL COMPOSITION FOR TREATING CANCER COMPRISING SIMULTANEOUS INHIBITOR OF HISTONE DEACETYLASE 6 AND HISTONE DEACETYLASE 10” (dated 2026).

Assays:
[1] = test system: HDAC; assay: HDAC inhibitory effect (histone acetylation; Western blot); conditions: CT26, Bufexamac 10 µM, 50 µM, 48 hrs, vs control group
[2] = test system: M2 macrophages; assay: M2 macrophage modulation, morphological changes; conditions: THP-1-derived M2 macrophages, 48 hrs
[3] = test system: CD206; assay: M2 macrophage modulation (RT-PCR; CD206); conditions: 48 hrs
[4] = test system: mouse MSS colorectal cancer cell line CT26; assay: Animal experiment, CT26 subcutaneous tumors: tumor volume and weight; conditions: Bufexamac alone 50 mg/kg, daily intraperitoneal, vs control group
[5] = Animal experiment: mouse body weight; conditions: CT26 tumor-bearing BALB/c mice, 50 mg/kg daily intraperitoneal
[6] = test system: bone marrow cells; assay: Analysis of bone marrow cells by flow cytometry (FACS)
[7] = test system: PD-L1; assay: PD-L1 expression by qRT-PCR in the human MSS CRC cell line; conditions: human MSS CRC cell line SW620, 5 µM, vs control group, GAPDH control gene
[8] = test system: PD-L1; assay: PD-L1 expression by qRT-PCR in the mouse MSS CRC cell line; conditions: mouse MSS CRC cell line CT26, 5 µM, vs control group, GAPDH control gene
[9] = test system: CT26 colorectal cancer cell line; assay: IC50 measurement by WST assay; conditions: CT26, 1×10^4 cells, 72 hrs, concentration at which half of the cells died

With `CCCCOc1ccc(CC(=O)NO)cc1` the “degree of H3K9 acetylation” value [1] was “weak, but was confirmed to be increased compared with the control group”, the “morphological changes in M2 macrophages” value ([2]; 50 µM) was “round shape similar to M0 macrophages” and the “RNA expression of CD206, an M2 macrophage marker” value ([3]; THP-1-derived M2 macrophages, 5, 10, 50 µM) was “decreased”. For the same compound, the tumor volume [4] was “no significant change”, the tumor weight [4] was “no significant change” and the “body weight of the mice” value [5] was “not reduced”. The M2 macrophages [6] was “no change”, the “myeloid-derived suppressor cells (MDSCs)” value [6] was “no change” and the M1 macrophages ([6]; dual inhibitor administered alone) was “increase compared with other groups”. The “mRNA expression of PD-L1” value [7] was “statistically significantly increased”, the “mRNA expression of PD-L1” value [8] was “statistically significantly increased” and the IC50 [9] was 107 µM.
With `CCCCN(Cc1ccc(C(=O)NO)cc1)C(=O)Nc1ccccc1` the “morphological changes in M2 macrophages” value ([2]; 4 µM) was “round shape similar to M0 macrophages” and the “RNA expression of CD206, an M2 macrophage marker” value ([3]; THP-1-derived M2 macrophages, 4 µM) was “decreased”.
